The numbers were not newly measured in article PMC8691714 (Cancer Research Communications, 2021), which cites them from elsewhere.

For this series the following is noted: cited from earlier work.

Like-named read-outs stand apart in the source and are kept apart here.

With `C=CC(=O)N1CCC[C@@H](n2nc(-c3ccc(Oc4ccccc4)cc3)c3c(N)ncnc32)C1` [Ibrutinib], the interindividual pharmacokinetic variability by setting is: (healthy volunteers, ibrutinib with itraconazole, ref [8]) 55%; (healthy volunteers, ibrutinib without itraconazole, ref [8]) 104%; (ibrutinib combined with ketoconazole, ref [7]) 20%; (ibrutinib without ketoconazole, ref [7]) 40%.
